# Assay results as given in patent publication US6855512B2, “Methods for identifying inhibitors of cytochrome P450RAI” (Allergan, Inc., priority 2000, dated 2005).
# Chains of the proteins cited; added tags and fusions are not shown.
# UniProt O43174, whole entry: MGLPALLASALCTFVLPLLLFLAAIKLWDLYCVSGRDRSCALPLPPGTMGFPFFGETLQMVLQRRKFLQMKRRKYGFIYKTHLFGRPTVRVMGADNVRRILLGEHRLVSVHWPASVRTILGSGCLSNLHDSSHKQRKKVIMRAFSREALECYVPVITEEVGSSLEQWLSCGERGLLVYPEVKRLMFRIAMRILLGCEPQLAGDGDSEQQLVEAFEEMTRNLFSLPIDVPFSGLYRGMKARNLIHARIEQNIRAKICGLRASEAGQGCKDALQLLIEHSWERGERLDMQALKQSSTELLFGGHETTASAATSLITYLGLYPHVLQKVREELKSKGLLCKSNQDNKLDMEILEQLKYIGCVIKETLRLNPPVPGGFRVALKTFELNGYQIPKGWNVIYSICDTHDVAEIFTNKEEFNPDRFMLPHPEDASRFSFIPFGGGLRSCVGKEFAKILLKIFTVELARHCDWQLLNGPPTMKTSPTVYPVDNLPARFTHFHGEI
# pIC50: −log10 of the molar value.
# Target: P450RAI-1 (Homo sapiens, UniProt O43174)
# Assay: P450RAI-1 cell-based inhibitor assay (intact HeLa)
# Conditions: read-out: P450RAI INHIBITION DATA INTACT HELA IC50; P450RAI-1 stably transfected HeLa cells, [3H]-RA, 3 hours at 37° C.; inhibition of all-trans-RA metabolism by 50 percent
row,SMILES,pIC50
1,CC1(C)CCC(=O)c2ccc(C#Cc3ccc(C(=O)O)cc3)cc21,5.92
2,COc1c(C(C)(C)C)cc(C#Cc2ccc(C(=O)O)cc2)cc1C(C)(C)C,5.82
